This test deals with T1, α2δ subunit derived from porcine brain tissue (Sus scrofa, UniProt A0A287BIN3).
T1 construct: the α2δ subunit derived from porcine brain tissue was used; from tissue; host or cells: porcine brain tissue
As to the kind of experiment: [3H]gabapentin radioligand binding assay (α2δ assay).

Sequences of proteins named here, by UniProt entry; tags and fusion partners are left off. A change or cut given only in a name is not applied to a line headed by its entry. Residues count along the entry.
UniProt A0A287BIN3, 25-1109: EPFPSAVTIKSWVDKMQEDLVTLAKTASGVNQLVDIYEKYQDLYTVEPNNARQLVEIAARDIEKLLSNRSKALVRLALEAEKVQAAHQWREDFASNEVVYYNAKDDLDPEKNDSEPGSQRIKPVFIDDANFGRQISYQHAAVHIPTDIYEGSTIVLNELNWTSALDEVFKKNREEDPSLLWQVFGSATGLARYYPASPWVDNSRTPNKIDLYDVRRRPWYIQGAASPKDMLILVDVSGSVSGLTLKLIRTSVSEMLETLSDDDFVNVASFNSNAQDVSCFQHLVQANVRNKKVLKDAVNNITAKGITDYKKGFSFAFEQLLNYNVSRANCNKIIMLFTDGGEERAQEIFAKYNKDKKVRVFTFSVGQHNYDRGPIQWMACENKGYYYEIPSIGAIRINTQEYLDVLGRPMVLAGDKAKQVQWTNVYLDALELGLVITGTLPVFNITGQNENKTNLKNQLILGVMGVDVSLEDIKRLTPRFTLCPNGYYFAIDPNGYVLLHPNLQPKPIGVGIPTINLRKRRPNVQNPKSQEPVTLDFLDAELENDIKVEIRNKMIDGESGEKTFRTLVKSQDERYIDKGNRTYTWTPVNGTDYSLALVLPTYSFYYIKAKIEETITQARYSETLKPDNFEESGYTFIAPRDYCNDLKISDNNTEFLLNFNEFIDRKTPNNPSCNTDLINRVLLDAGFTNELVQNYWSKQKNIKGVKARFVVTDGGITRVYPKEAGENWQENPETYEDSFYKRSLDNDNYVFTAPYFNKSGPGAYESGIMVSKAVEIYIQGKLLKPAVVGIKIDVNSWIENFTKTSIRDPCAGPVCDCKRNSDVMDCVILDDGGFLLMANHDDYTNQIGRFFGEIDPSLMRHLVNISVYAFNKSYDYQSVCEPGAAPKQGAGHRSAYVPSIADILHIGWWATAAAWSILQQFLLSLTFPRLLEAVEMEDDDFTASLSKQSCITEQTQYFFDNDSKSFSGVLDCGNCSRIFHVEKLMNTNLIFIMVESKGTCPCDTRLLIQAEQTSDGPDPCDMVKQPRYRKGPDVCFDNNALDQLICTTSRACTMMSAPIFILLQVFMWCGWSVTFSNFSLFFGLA

Broadly, the IC50 is the point on the concentration scale where inhibition reaches its midpoint. A lower IC50 goes with greater potency. As for `NCC1(CC(=O)O)CCCCC1` [Gabapentin, 1-(aminomethyl)-cyclohexaneacetic acid, reference compound], the IC50 lay in the range of 100 to 120 nM.

The record behind these values is patent US6710190B1, “3-heteroarylalkyl substituted gaba analogs” (Warner-Lambert Company, priority 1999, dated 2004).
